pEC50: −log10 of the molar value.
System: acetylation level of α-tubulin in HCT116 cells
Test: Assay on acetylation level of α-tubulin, HCT116 cells
Conditions: read-out: EC50 (acetylation level of α-tubulin), 6 h

pEC50: 6.03
SMILES: O=S1(=O)c2cc(-c3nnc(C(F)F)o3)ccc2CN1C(c1ccccn1)C(O)c1ccccn1 (single isomer, unassigned) [70i-B-B]

Reference: patent US20250257060A1, “OXADIAZOLE COMPOUND, PHARMACEUTICAL COMPOSITION COMPRISING SAME, AND USE THEREOF” (SUZHOU GENHOUSE BIO CO., LTD., priority 2022, published 2025)
